The source of these data is patent US20190358196A1, “PI 4-KINASE INHIBITOR AS A THERAPEUTIC FOR VIRAL HEPATITIS, CANCER, MALARIA. AUTOIMMUNE DISORDERS AND INFLAMMATION, AND A RADIOSENSITIZER AND IMMUNOSUPPRESSANT” (priority 2016, published 2019).

The chains behind the UniProt entries cited, without tags or fusion partners.
UniProt P42356, whole entry: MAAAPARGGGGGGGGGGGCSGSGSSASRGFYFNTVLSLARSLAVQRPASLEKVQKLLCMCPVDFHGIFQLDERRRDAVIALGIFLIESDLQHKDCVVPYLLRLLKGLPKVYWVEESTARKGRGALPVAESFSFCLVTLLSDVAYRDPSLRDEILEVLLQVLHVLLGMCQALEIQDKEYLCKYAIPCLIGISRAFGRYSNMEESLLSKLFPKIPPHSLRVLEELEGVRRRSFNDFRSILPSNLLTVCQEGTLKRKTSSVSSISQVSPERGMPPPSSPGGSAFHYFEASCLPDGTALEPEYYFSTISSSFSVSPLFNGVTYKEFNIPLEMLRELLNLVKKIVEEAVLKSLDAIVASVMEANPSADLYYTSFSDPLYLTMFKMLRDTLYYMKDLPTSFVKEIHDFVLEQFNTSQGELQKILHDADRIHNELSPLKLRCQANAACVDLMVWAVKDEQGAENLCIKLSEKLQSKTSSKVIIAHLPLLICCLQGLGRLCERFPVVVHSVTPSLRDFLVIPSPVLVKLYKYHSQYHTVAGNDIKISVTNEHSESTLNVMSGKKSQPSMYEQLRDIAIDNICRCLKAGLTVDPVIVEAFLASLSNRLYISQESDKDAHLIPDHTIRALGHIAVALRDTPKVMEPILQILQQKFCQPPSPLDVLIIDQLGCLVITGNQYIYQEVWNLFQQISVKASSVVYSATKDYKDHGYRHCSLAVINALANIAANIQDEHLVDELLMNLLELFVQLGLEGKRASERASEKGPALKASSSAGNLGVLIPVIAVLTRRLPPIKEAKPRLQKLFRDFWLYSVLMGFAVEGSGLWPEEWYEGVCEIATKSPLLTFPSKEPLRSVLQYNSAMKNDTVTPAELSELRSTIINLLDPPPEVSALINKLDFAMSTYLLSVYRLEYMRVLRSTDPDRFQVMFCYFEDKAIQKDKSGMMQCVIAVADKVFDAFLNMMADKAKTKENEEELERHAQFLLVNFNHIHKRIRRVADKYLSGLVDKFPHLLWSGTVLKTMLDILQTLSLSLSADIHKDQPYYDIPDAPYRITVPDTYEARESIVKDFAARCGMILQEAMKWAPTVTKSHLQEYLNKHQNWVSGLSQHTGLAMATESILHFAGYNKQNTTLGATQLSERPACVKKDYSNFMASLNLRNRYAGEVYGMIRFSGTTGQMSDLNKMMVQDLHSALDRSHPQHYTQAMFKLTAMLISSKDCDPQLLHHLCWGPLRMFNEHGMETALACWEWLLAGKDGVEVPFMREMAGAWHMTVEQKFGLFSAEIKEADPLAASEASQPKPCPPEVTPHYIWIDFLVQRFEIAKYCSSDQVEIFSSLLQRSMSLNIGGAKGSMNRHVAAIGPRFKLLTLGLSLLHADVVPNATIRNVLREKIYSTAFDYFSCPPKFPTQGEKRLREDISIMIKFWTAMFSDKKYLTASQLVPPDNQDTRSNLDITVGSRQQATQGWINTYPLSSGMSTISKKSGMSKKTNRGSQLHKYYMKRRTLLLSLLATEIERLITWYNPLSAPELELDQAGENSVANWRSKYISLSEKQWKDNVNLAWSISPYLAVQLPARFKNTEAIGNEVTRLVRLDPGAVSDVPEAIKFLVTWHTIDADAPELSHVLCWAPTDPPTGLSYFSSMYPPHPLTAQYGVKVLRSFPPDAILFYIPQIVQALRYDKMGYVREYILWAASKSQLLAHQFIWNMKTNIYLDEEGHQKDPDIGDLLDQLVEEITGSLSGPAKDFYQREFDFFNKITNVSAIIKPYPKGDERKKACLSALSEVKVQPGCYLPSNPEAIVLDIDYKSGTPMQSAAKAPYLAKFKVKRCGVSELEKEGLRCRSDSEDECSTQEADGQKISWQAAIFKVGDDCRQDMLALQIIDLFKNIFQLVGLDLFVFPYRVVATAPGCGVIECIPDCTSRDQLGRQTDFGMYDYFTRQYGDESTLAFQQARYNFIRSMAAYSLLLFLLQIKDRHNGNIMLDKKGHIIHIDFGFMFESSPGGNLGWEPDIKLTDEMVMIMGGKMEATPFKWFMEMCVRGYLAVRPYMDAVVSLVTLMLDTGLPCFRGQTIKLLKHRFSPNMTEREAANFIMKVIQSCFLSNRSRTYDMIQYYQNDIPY
UniProt P42336, whole entry: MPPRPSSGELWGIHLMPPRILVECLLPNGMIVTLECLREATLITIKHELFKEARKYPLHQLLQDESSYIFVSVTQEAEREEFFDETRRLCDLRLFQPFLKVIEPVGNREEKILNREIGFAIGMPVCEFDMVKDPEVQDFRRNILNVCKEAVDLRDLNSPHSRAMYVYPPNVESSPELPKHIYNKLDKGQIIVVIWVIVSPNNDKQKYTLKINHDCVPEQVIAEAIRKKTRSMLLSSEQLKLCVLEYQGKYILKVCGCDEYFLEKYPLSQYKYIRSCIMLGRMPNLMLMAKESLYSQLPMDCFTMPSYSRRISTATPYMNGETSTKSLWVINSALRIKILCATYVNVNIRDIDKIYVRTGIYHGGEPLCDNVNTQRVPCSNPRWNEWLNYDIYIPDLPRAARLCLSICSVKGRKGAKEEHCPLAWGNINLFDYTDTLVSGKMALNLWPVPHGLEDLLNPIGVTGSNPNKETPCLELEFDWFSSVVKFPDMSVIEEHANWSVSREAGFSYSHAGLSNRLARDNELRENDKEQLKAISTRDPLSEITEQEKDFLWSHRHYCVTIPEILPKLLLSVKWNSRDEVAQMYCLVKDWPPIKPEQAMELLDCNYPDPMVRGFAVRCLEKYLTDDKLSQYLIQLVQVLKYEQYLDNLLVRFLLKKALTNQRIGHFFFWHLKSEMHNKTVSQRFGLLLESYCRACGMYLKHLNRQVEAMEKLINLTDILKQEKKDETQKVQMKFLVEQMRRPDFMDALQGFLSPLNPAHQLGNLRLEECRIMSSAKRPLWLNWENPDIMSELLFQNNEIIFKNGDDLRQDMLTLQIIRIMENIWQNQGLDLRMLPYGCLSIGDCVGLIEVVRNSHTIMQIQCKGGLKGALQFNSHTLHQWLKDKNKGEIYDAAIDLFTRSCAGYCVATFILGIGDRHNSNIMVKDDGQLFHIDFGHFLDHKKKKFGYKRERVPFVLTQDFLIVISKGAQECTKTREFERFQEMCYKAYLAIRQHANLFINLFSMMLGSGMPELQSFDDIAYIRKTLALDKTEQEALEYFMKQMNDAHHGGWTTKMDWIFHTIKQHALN
UniProt Q9UBF8, whole entry: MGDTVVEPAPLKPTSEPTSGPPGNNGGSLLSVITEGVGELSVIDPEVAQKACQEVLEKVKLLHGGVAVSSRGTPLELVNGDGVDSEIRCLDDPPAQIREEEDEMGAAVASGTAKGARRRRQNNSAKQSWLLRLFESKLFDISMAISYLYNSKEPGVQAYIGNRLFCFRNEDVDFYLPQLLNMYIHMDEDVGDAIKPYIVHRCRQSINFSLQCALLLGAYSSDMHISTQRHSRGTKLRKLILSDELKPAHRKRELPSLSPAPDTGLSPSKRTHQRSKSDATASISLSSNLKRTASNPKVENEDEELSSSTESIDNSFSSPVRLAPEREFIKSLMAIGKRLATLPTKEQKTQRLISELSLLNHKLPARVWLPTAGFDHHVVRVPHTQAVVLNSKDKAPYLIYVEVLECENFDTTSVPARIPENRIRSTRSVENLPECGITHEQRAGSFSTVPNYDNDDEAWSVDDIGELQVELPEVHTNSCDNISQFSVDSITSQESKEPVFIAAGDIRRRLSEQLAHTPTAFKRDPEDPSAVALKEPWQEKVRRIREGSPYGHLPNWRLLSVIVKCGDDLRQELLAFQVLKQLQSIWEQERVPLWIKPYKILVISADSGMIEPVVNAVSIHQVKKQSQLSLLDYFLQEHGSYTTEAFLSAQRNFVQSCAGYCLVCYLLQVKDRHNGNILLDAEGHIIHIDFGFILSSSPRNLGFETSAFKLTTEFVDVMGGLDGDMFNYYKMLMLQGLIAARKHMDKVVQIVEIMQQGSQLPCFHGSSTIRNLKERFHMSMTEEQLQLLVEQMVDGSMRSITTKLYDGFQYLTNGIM
UniProt P27986, whole entry partner: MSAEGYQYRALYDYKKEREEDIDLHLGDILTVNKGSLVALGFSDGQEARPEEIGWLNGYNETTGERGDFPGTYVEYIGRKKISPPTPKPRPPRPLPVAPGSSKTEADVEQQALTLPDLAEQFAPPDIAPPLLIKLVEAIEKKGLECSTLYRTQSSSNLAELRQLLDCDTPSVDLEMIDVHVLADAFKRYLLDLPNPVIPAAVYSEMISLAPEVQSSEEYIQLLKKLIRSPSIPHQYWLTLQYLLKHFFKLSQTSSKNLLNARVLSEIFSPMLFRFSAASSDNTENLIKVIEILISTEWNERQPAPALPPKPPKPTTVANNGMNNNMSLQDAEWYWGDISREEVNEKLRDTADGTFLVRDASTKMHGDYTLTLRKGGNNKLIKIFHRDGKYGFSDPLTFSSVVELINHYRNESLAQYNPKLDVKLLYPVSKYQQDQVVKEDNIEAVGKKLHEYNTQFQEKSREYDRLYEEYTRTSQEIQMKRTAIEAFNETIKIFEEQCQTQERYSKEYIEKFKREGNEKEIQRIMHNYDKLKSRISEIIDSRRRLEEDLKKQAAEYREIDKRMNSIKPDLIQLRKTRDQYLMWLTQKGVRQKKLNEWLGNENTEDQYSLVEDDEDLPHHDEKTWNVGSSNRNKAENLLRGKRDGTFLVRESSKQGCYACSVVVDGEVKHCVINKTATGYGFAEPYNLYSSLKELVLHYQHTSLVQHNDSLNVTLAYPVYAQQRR

In brackets after ≈: the same amount, converted by molar mass.

The target of one test is PI4Ka (Homo sapiens, UniProt P42356). As to the kind of experiment: HotSpot lipid kinase inhibition assay. As to conditions: ATP 10 μM.
For another test, the target named is PI3Ka (Homo sapiens, UniProt P42336). As to the kind of experiment: HotSpot lipid kinase inhibition assay. As to conditions: ATP 10 μM.
The test system of another test is A498. Put plainly: CellTiter Glo cell viability assay. Format: cell-based. As to conditions: read-out: IC50 Values; Kidney, A498, 72 h.
In another test the test system is NCI-H69. Put plainly: CellTiter Glo cell viability assay. Type of test: cell-based. As to conditions: read-out: IC50 Values; Lung (Small), NCI-H69, 72 h. (In general: ATP-based viability assays read luminescence as a measure of living cells.)
In the next test the test system is PC-3. Put plainly: CellTiter Glo cell viability assay. Type of test: cell-based. As to conditions: read-out: IC50 Values; Prostate, PC-3, 72 h.
A further test relates to CFPAC-1. Put plainly: CellTiter Glo cell viability assay. Format: cell-based. As to conditions: read-out: IC50 Values; Pancreatic, CFPAC-1, 72 h.
Another test deals with COLO-205. Put plainly: CellTiter Glo cell viability assay. Format: cell-based. As to conditions: read-out: IC50 Values; Colon, COLO-205, 72 h.
The subject of a further test is DLD-1. Put plainly: CellTiter Glo cell viability assay. Type of test: cell-based. As to conditions: read-out: IC50 Values; Colon, DLD-1, 72 h.
A further test concerns MCF-7. As to the kind of experiment: CellTiter Glo cell viability assay. Format: cell-based. As to conditions: read-out: IC50 Values; Breast, MCF-7, 72 h.
In the next test the test system is A549. As to the kind of experiment: CellTiter Glo cell viability assay. Format: cell-based. As to conditions: read-out: IC50 Values; Lung, A549, 72 h.
The test system of another test is RL. Put plainly: CellTiter Glo cell viability assay. Type of test: cell-based. As to conditions: read-out: IC50 Values, Lymphoma, 72 h.
The subject of the next test is UACC-62. Put plainly: CellTiter Glo cell viability assay. Type of test: cell-based. As to conditions: read-out: IC50 Values; Melanoma, UACC-62, 72 h.
In the next test the test system is MiaPaca-2. Put plainly: CellTiter Glo cell viability assay. Format: cell-based. As to conditions: read-out: IC50 Values; Pancreatic, MiaPaca-2, 72 h.
The subject of the next test is IGROV-1. As to the kind of experiment: CellTiter Glo cell viability assay. Type of test: cell-based. As to conditions: read-out: IC50 Values; Ovarian, IGROV-1, 72 h.
The target of the next test is PI4Kcb kinase (Homo sapiens, UniProt Q9UBF8). As to the kind of experiment: Competition binding assay (Kd).

On to `COc1cc(O)c2c(=O)c(OC)c(-c3ccc(O)c(O)c3)oc2c1`, for which the “Compound IC50 (M), PI4Ka” value on PI4Ka was determined as 6.1e-06 M. In addition, on PI3Ka, the “Compound IC50 (M), PI3Ka” value was determined as 5.16e-07 M. Further, the IC50 was 50 µM in the test with A498; 9.3 µM in the test with NCI-H69; 11 µM with PC-3; 5.9 µM in the test on CFPAC-1; 18 µM in the test on COLO-205; 7.8 µM with DLD-1. In addition, the IC50 in the test on MCF-7 was determined as 7.4 µM; with A549, 9.5 µM; in the test with RL it was 5.4 µM; in the test with UACC-62, 20 µM; with MiaPaca-2, 17 µM; in the test on IGROV-1 it was 7.1 µM. Also, the “Kd” value on PI4Kcb kinase stood at 4.8 ng/mL (≈ 0.0145 µM).

Usually IC50 stands for the concentration needed to halve the response being measured. A word on the Kd: it is the concentration at which binding is half-saturated.
